Assay results from the CheMixHub ionic liquid set.

Test: xn = mol fraction of the nth substance listed
Conditions: 100 kPa

CCC[N+](CCC)(CCC)CCC.O=[N+]([O-])[O-] + CCCCCCCCCCCCOS(=O)(=O)[O-].[Na+] + O
viscosity [mPa·s]
Conditions | x2 = 1.81e-06, x1 = 0.0001802 | x2 = 3.61e-06, x1 = 0.0001802 | x2 = 5.42e-06, x1 = 0.0001802 | x2 = 7.22e-06, x1 = 0.0001802 | x2 = 9.03e-06, x1 = 0.0001802 | x2 = 1.084e-05, x1 = 0.0001802 | x2 = 1.264e-05, x1 = 0.0001802 | x2 = 1.445e-05, x1 = 0.0001802 | x2 = 1.626e-05, x1 = 0.0001802 | x2 = 1.806e-05, x1 = 0.0001802
293.15 K | 1.013 | 1.015 | 1.016 | 1.016 | 1.017 | 1.018 | 1.019 | 1.019 | 1.019 | 1.019
298.15 K | 0.898 | 0.901 | 0.901 | 0.902 | 0.903 | 0.903 | 0.903 | 0.903 | 0.904 | 0.904
303.15 K | 0.795 | 0.798 | 0.799 | 0.8 | 0.8 | 0.801 | 0.801 | 0.801 | 0.801 | 0.801
308.15 K | 0.707 | 0.708 | 0.709 | 0.71 | 0.713 | 0.713 | 0.713 | 0.713 | 0.714 | 0.714
313.15 K | 0.64 | 0.642 | 0.643 | 0.644 | 0.644 | 0.645 | 0.645 | 0.645 | 0.645 | 0.645
318.15 K | 0.594 | 0.596 | 0.597 | 0.597 | 0.598 | 0.598 | 0.598 | 0.598 | 0.598 | 0.598

CCC[N+](CCC)(CCC)CCC.O=[N+]([O-])[O-] + CCCCCCCCCCCC[N+](C)(C)C.[Br-] + O
viscosity [mPa·s]
Conditions | x2 = 5.418e-05, x1 = 0.0001802 | x2 = 0.0001084, x1 = 0.0001801 | x2 = 0.0001625, x1 = 0.0001801 | x2 = 0.0002167, x1 = 0.0001801 | x2 = 0.0002708, x1 = 0.0001801 | x2 = 0.000325, x1 = 0.0001801 | x2 = 0.0003791, x1 = 0.0001801 | x2 = 0.0004333, x1 = 0.0001801 | x2 = 0.0004874, x1 = 0.0001801 | x2 = 0.0005416, x1 = 0.0001801
293.15 K | 1.042 | 1.043 | 1.045 | 1.047 | 1.048 | 1.048 | 1.049 | 1.049 | 1.049 | 1.05
298.15 K | 0.924 | 0.926 | 0.927 | 0.928 | 0.928 | 0.929 | 0.929 | 0.929 | 0.93 | 0.93
303.15 K | 0.819 | 0.822 | 0.824 | 0.824 | 0.825 | 0.825 | 0.825 | 0.825 | 0.826 | 0.826
308.15 K | 0.729 | 0.73 | 0.731 | 0.732 | 0.735 | 0.735 | 0.735 | 0.736 | 0.736 | 0.736
313.15 K | 0.661 | 0.663 | 0.664 | 0.664 | 0.665 | 0.665 | 0.666 | 0.666 | 0.666 | 0.666
318.15 K | 0.614 | 0.616 | 0.617 | 0.617 | 0.618 | 0.618 | 0.618 | 0.618 | 0.618 | 0.618
